One compound from paper PMC6348381, “Discovery of an MLLT1/3 YEATS Domain Chemical Probe” (Angewandte Chemie (International Ed. in English), 2018) can be followed below.

By UniProt entry, the sequences of proteins in these tests, tags left out. Residues count along the entry.
UniProt Q03111, 1-138 limits assumed: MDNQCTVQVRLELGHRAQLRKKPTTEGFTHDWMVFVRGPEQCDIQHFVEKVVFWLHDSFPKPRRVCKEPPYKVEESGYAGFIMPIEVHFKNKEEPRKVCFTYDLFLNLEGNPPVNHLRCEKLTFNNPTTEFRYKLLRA
UniProt P42568, whole entry: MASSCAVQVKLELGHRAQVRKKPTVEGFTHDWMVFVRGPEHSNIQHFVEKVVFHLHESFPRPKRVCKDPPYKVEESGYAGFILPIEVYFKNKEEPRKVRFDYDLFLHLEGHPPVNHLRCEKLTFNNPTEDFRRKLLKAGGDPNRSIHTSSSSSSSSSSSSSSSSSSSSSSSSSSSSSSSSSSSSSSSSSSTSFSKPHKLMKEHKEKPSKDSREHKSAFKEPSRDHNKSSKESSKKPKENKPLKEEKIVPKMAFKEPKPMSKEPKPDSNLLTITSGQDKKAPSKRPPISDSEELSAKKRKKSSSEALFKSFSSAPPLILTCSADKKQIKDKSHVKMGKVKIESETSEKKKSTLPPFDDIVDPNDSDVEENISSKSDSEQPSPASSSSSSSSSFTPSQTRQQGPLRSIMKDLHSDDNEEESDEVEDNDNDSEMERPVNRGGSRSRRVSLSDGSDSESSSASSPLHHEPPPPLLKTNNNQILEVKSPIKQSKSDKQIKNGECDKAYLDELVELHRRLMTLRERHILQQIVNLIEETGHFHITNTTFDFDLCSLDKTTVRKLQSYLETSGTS

The nature of data set [1]: Metabolic stability in primary human hepatocytes. In kind it is in vitro ADME.
Another data set addresses MLLT1 YD (Homo sapiens, UniProt Q03111). Description: Isothermal titration calorimetry (ITC), MLLT1 YD. Conditions: read-out: MLLT1 YD Kd. The class given is binding. For orientation: In ITC the heat of successive injections is recorded.
A further data set has as its target MLLT3 (Homo sapiens, UniProt P42568). The data set is described as follows: NanoBRET assay, full-length MLLT3-NanoLuc / histone H3.3-HaloTag in HEK293 cells. The note with it: read-out: NanoBRET average IC50, MLLT3-NanoLuc/H3.3-HaloTag, 24 h, in the presence of SAHA, n=3 biological replicates.

As a reminder, the Kd is the concentration at which binding is half-saturated.

`C[C@H]1CCCN1Cc1nc2cc(NC(=O)c3ccc4c(cnn4C4CC4)c3)ccc2[nH]1`: the “metabolic stability t1/2” value in data set [1] was “≈ 30 min”. Further, the Kd on MLLT1 YD was 58 nM. Besides, the IC50 at MLLT3 came to 967 nM.
